Measured values taken from PubChem BioAssay AID463254 (National Center for Advancing Translational Sciences (NCATS), 2010).
Out of some 330,000 compounds screened, about 40 (0.01%) were called active. The source calls these results inconclusive, neither active nor inactive. Calls come from the whole dose curve; as a rule, active = well fitted inhibition curve with a large enough effect; inconclusive = small, poorly fitted or top-dose-only effect, or effect the other way; inactive = flat fitted curve, though single readings scatter.

The chains behind the UniProt entries cited, without tags or fusion partners. Where a name states a change or a piece, a line headed by the entry shows the natural chain unless it says otherwise.
UniProt O75604: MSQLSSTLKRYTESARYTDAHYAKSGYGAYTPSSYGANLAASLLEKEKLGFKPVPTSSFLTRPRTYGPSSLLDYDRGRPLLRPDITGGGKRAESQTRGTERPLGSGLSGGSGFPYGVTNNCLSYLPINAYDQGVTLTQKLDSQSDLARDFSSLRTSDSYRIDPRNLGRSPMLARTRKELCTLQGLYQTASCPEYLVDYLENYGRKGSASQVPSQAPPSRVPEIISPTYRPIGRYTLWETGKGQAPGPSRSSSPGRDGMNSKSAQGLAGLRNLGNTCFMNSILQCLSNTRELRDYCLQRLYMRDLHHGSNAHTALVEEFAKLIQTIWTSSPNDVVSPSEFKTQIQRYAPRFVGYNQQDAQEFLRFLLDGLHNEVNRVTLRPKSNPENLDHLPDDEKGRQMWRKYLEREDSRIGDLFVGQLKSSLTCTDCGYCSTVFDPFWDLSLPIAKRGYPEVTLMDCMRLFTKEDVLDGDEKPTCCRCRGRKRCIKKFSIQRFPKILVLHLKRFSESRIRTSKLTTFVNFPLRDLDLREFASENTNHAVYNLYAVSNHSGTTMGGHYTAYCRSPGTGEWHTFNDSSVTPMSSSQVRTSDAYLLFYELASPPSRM

target: Ubiquitin carboxyl-terminal hydrolase 2 (Homo sapiens) (UniProt O75604); test: qHTS Assay for Inhibitors of Ubiquitin-specific Protease USP2a Using CHOP2 as the Reporter; details: USP2 core, Ub-CHOP2 coupled fluorogenic reporter, 485/531
From the text: NIH Molecular Libraries Screening Centers Network [MLSCN] NIH Chemical Genomics Center [NCGC] MLSCN Grant: XO1-MH079852-01 PI Name: Nicholson, Ben. Progenra Inc, Malvern, PA NCGC Assay Overview: Homeostasis of cellular proteins is maintained through a combination of synthesis and degradation. The pathway that accounts for the majority of protein degradation is the ubiquitin-proteasomal pathway. Ubiquitin (Ub) is highly conserved in all cells and the generation of a multi-Ub chain typically targets proteins for degradation by the proteasome. However, ubiquitination is highly reversible and dynamic. […] Thus, this coupled assay gives a fluorescent read-out at excitation/emission wavelengths of 485/531. […]
NCGC Assay Protocol Summary: The assay buffer, prepared fresh at the day of the assay, contains 20mM Tris-HCl pH 8.0, 2mM CaCl2, 2mM beta-Mercaptoethanol, 0.05% CHAPS. […] Plates were read after 60min RT incubation on a ViewLux (Perkin Elmer) plate reader using the following wavelengths Ex 485nm /Em 531nm. […] Concentration-response curves were fitted to the normalized data and the concentration-response curves were then classified based on curve quality (r2), response magnitude and degree of measured activity. The time zero reading was used to flag fluorescence artifacts. […]
Potency is the fitted concentration of half-maximal effect.

| Structure (SMILES) | Potency |
| --- | --- |
| Nc1cccc2c([As](=O)(O)O)cccc12 | inconclusive: 10 µM |
